# Test results from patent publication US9320281B2, “Readied in situ glyphosate herbicide soluble powder composition and its preparation process” (ALLVET QUIMICA INDUSTRIAL LTDA., priority 2011, dated 2016).
# System: rats
# Assay: Acute oral toxicology LD50 in rats
# Format: in vivo
substance,measurement,value
Coco amide propyl amine oxide,Acute oral toxicology LD50,>2000 mg/kg
